Details: room temperature, FIG. 2

## ammonium salt of glutamic acid N,N-diacetic acid (GLDA) [ammonium GLDA]
  time CaCO3 is kept in solution: at least 5 days
pH 3.2 to 10.2, especially at pH=3.2
  dissolution of CaCO3: able to dissolve significant quantities of CaCO3

Source: patent US9587171B2, “Ammonium salts of chelating agents and their use in oil and gas field applications” (AKZO NOBEL CHEMICALS INTERNATIONAL B.V., priority 2010, dated 2017)
